Experimental data: ChEMBL document CHEMBL4002583, “Amino derivatives of platanic acid act as selective and potent inhibitors of butyrylcholinesterase” (Eur J Med Chem, 2017)

Protein sequences, listed by entry. Tags and fused reporters are not part of them. Residues count along the entry.
UniProt O42275, 24-633 limits assumed: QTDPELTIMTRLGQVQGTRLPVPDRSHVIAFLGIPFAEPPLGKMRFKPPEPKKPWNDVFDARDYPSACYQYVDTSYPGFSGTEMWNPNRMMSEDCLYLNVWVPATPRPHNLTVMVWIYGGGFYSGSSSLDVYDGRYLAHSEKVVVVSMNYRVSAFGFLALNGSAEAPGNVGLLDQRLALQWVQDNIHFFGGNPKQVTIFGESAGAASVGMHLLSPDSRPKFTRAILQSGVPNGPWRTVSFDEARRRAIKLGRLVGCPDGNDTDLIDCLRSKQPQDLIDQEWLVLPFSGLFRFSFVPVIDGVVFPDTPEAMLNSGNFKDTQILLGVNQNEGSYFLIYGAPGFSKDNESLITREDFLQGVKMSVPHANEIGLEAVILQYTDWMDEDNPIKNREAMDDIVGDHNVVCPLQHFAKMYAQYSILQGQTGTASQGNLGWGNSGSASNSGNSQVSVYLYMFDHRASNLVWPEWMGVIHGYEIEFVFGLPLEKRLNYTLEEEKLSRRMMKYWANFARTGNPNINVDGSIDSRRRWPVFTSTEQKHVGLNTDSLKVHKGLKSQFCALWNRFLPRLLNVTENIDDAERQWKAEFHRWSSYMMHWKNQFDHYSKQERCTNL
UniProt P81908, whole entry, looked up: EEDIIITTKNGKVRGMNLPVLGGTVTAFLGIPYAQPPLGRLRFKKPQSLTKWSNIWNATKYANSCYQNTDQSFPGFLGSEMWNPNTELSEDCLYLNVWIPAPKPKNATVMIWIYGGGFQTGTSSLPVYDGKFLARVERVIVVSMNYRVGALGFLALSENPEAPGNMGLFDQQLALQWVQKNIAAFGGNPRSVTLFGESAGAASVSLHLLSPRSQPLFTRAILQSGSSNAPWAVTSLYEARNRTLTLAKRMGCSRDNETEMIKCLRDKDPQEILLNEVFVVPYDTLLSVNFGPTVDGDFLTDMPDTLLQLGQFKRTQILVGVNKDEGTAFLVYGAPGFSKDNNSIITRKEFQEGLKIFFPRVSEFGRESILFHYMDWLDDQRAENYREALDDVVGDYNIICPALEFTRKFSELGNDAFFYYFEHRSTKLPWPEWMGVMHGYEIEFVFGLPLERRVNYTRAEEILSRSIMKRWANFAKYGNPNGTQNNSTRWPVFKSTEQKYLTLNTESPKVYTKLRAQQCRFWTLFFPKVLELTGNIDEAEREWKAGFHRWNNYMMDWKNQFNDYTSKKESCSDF

Columns and labels:
[1] = molecular target: T1, Acetylcholinesterase (Electrophorus electricus, UniProt O42275); assay: Uncompetitive inhibition of electric eel AChE using acetylthiocholine iodide as substrate preincubated for 20 mins followed by substrate addition measured every 1 min for 30 mins by Cornish-Bowden plot method
[2] = molecular target: Cholinesterase (Equus caballus, UniProt P81908)
[3] = molecular target: T1, Acetylcholinesterase

| Structure (SMILES) | Ki [1] [µM] | Ki [2] [µM] | Ki [3] [µM] |
| --- | --- | --- | --- |
| COC(=O)[C@]12CC[C@@H](/C(C)=N\O)[C@@H]1[C@H]1CC[C@@H]3[C@@]4(C)CC[C@H](OC(C)=O)C(C)(C)[C@@H]4CC[C@@]3(C)[C@]1(C)CC2 | 14 | > 40 | 6.51 |
| COC(=O)[C@]12CC[C@@H](/C(C)=N/O)[C@@H]1[C@H]1CC[C@@H]3[C@@]4(C)CC[C@H](OC(C)=O)C(C)(C)[C@@H]4CC[C@@]3(C)[C@]1(C)CC2 | 16.4 | > 10 | 6.96 |
| CC(=O)O[C@H]1CC[C@]2(C)[C@H]3CC[C@@H]4[C@H]5[C@H](/C(C)=N/O)CC[C@]5(C(=O)O)CC[C@@]4(C)[C@]3(C)CC[C@H]2C1(C)C | – | > 40 | 16.7 |
